The text below walks through data of ChEMBL document CHEMBL1136786, “2002 Medicinal Chemistry Division Award address: monoamine transporters and opioid receptors. Targets for addiction therapy” (J Med Chem, 2003).

The chains behind the UniProt entries cited, without tags or fusion partners.
UniProt P23975, whole entry: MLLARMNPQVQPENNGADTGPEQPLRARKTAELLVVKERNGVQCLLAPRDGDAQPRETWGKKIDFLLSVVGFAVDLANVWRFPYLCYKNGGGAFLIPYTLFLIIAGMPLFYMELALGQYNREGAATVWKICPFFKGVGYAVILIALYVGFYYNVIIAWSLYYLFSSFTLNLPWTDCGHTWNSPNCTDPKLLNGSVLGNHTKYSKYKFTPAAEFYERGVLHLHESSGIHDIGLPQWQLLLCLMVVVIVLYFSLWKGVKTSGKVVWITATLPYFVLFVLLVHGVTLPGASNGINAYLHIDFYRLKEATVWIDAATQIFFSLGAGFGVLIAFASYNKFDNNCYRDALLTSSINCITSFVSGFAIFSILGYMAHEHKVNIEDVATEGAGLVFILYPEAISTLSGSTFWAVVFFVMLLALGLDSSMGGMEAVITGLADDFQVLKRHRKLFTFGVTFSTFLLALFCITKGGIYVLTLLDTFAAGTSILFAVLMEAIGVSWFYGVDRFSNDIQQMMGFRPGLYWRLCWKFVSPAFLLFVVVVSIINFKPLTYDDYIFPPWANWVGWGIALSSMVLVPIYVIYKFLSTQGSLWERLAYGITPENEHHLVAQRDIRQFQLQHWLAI
UniProt Q9WTR4, whole entry: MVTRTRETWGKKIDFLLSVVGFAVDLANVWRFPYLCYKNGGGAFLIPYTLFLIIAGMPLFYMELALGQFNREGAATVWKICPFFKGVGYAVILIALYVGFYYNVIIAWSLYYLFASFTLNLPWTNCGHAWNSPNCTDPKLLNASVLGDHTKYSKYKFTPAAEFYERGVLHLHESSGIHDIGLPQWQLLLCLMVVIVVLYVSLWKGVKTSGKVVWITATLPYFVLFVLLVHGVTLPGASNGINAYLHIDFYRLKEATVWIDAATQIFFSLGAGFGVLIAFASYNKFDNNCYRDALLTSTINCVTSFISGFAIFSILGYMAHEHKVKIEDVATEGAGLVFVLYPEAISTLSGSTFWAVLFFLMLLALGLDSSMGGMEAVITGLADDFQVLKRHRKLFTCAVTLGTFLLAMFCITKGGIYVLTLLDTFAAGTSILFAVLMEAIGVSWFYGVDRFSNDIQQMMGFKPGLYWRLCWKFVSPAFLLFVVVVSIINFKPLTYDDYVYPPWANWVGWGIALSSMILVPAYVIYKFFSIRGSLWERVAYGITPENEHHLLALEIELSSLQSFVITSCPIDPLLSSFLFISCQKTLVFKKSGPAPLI

The target of assay [1] is Sodium-dependent noradrenaline transporter (Homo sapiens, UniProt P23975). Kind of assay: Inhibition of Norepinephrine (NA) reuptake using cloned human transporter was determined.
For assay [2], the target named is Norepinephrine transporter (Rattus norvegicus, UniProt Q9WTR4). Kind of assay: Inhibition of [3H]nisoxetine binding at norepinephrine transporter was determined.

pIC50, pKi: −log10 of the molar value.

The pIC50 is −log10 of the IC50, conventionally taken in molar units. A low value points to a large IC50. For orientation: pKi means −log10 of the Ki, conventionally taken in molar units.

Turning to `CC(NC(C)(C)C)C(=O)c1cccc(Cl)c1` (configuration not stated) [BUPROPION], the negative logarithm of the IC50 (pIC50) in assay [1] was 5.84.

For the molecule `COC(=O)[C@H]1[C@@H](OC(=O)c2ccccc2)C[C@@H]2CC[C@H]1N2C` [COCAINE], the negative-log Ki (pKi) in assay [2] was 5.70.
